In ChEMBL document CHEMBL3792331, “Identification and synthesis of potent and selective pyridyl-isoxazole based agonists of sphingosine-1-phosphate 1 (S1P1)” (Bioorg Med Chem Lett, 2016):

Test: Selectivity index, ratio of EC50 for agonist activity at human S1P3 receptor expressed in EDG3-Ga15-bla HEK293T cell membranes to EC50 for agonist activity at human S1P1 receptor expressed in CHO cell membranes
Format: cell-based
Outline: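 S1P3/S1P1 ratio of GTPγ[35S] EC50s. Membranes from EDG3-Ga15-bla HEK293T (S1P3) or S1P1/CHO cells, […], 0.2 nM final [35S]GTP. HEPES pH 7.5 buffer with MgCl2, NaCl, EGTA, DTT, GDP, BSA and saponin. 45 min at room temperature, filtration read-out. Each EC50 taken at 50% of the compound's own Ymax.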

O=C(O)C1CN(Cc2ccc(-c3noc(-c4onc(-c5ccccc5)c4C(F)(F)F)n3)cc2)C1
Ratio EC50: 3400
